Assays:
[1] = tested on: patients with hemiplegia attributed to cerebrovascular disease (stroke) at Brunnstrom stage III or lower, not yet developing RSD; parameters: species or system human; details: in vivo
Source text: Test subjects were 32 patients with hemiplegia attributed to cerebrovascular disease (stroke) at Brunnstrom stage III or lower in either the upper limb or a finger on admission. Patients already developing RSD (shoulder-hand syndrome) on admission and patients with pain in the shoulder joint or swollen paralyzed limbs were excluded from the test. To 11 of these 32 test subjects, 20 units of elcatonin (Elcitonin Injection 20S; Asahi-Kasei Pharma; hereinafter, referred to as EL) were intramuscularly administered once a week immediately after admission (EL administration group). On the other hand, 21 test subjects were classified into a rehabilitation alone group (control group) and compared with the EL administration group. Physical therapy and therapeutic exercise, occupational therapy, and the management of the paralyzed limbs were performed thoroughly in all the cases. […] EL administration was initiated 11 to 59 days after an attack of stroke (25.8 days on average) and continued until 5 months after the attack of stroke. The same observation period was applied to the control group. […]
Activities of daily living (ADL) were evaluated on the basis of the Barthel Index (BI) and the range of motion (ROM) of shoulder joint. […]

[2] = in vivo

Intramuscular dose relative to drip infusion in vein needed for equal maximum serum concentration [2]: approximately 1.5 times
Substance: 1-butyric acid-7-(L-2-aminobutyric acid)-26-L-aspartic acid-27-L-valine-29-L-alanine-calcitonin [elcatonin]
Side effects during the test period [1]: no significant or serious side effect was observed

Source: US20080090767A1, “Agent for prophylaxis of reflex sympathetic dystrophy after cerebral apoplexy” (Asahi Kasei Pharma Corporation, priority 2006, published 2008)
